Measured values from PubChem BioAssay AID602250 (The Scripps Research Institute Molecular Screening Center, 2012).
The entries are a selection whose mix differs from that of the whole data set. Calls of active or inactive are those of the source.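 How the source made its calls: active means inhibition above a per-plate cutoff, the plate's mean sample inhibition plus 3 SD (cut at about 24% in these data); inactive means the rest.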

assay: nonselective inhibitors of ATP calcium response in CHO-K1, primary screen, counter-screen for M1 antagonist project, cell-based, Fluo-8 calcium fluorescence, full deck, 1536-well (AID 602250); conditions: CHO-K1 parental, ATP-induced calcium, Fluo-8 fluorescence; at 3 µM; hits give high values;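 further: 0% = DMSO plus EC80 ATP and 100% = DMSO alone without ATP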

| SMILES | inhibition |
| --- | --- |
| O=P1(Nc2nc3ccc(Cl)cc3s2)COc2ccccc2O1 (stereo not drawn) | inactive: -11.9% |
| CCOC(=O)c1ccc(NC(=O)C(C)(CCl)SC)cc1 (stereo not drawn) | inactive: -13.2% |
| O=C(OC1CN2CCC1CC2)C12CC3CC(CC(C3)C1)C2 (stereo not drawn) | inactive: -8.38% |
